In paper PMC12460146, “Impact of metabolic enzyme activity variability on dabrafenib disposition” (Frontiers in Pharmacology, 2025):

Tested on: rat liver microsomes (RLM)
Assay: Drug interaction screening of 48 drugs on dabrafenib metabolism in RLM
Conditions: inhibitor 100 µM, dabrafenib at RLM Km concentration, hydroxy-dabrafenib formation

## CCOc1cc(CC(=O)N[C@@H](CC(C)C)c2ccccc2N2CCCCC2)ccc1C(=O)O [Repaglinide]
  Relative activity (% of control): 100.54% ± 0.05
